Experimental data taken from US7517889B2, “2,6-substituted-4-monosubstitutedamino-pyrimidine as prostaglandin D2 receptor antagonists” (Aventis Pharmaceuticals, Inc., priority 2004, dated 2009).

Target: T1, DP receptor (Homo sapiens, UniProt Q13258)
T1 construct: the human cell line LS174T, which expresses the endogenous DP receptor; endogenous in cells; host or cells: LS174T human cell line
T1 sequence (Q13258 1-359): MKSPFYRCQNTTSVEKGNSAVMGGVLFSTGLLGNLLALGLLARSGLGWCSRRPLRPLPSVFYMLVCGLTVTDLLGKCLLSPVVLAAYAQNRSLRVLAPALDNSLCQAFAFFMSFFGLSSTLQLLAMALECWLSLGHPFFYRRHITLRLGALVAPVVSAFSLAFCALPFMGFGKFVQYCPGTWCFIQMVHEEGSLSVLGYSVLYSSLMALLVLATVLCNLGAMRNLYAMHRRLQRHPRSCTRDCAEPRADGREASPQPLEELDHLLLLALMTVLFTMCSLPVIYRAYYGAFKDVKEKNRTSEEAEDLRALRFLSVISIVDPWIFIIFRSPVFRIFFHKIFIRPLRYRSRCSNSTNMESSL
Test: SPA cAMP assay in human LS174 T cells (human DP functional assay)
Type: cell-based
Settings: inhibition of PGD2 (15 nM final) stimulated cAMP, LS174T cells expressing endogenous DP receptor
Description: The inhibitory effects of the compounds according to the invention are assessed in a human DP functional assay. A cAMP assay is employed using the human cell line LS174T, which expresses the endogenous DP receptor.
Protocol for SPA cAMP Assay in Human LS174 T Cells
• 1) Add equal volumes of tracer, antiserum and SPA anti-rabbit reagent to a bottle, ensuring that a sufficient volume of this mixture is prepared for the desired number of wells (150 μL/well). • 2) Mix thoroughly. • 3) This immunoreagent solution should be freshly prepared before each assay and not re-used.
Add 50 μL of […] IBMX into 100 mL PBS to make a final concentration of 100 μM and sonicate at 30° C. for 20 minutes.
Before each assay, it is freshly prepared. Add 3 μL of 10 mM stock solution to 20 mL DMSO, mix it thoroughly, and transfer 10 mL to 40 mL PBS.
Compound dilution is carried out in Biomex 2000 (Beckman) using Method 1_cAMP DP 11 points.
5 μL of each compound from the 10 mM stock compound plates is transferred to the wells of a 96-well plate respectively as below.
Fill the plate with 45 μL of DMSO except column 7 is filled with 28 μL DMSO. Pipette column 1 thoroughly, and transfer 12 μL into column 7 parallel. […]
The cAMP concentrations (pmol/mL) of unknown samples are calculated from a standard curve of cAMP versus CPM. % inhibition is calculated using the following formula: […]

SMILES: COc1ccc(CCNc2cc(-c3cccc(-c4cnco4)c3)nc(OC)n2)cc1 [Example 11(b), [2-Methoxy-6-(3-oxazol-5-yl-phenyl)-pyrimidin-4-yl]-[2-(4-methoxy-phenyl)-ethyl]-amine]
- IC50: 2.6 nM
